# Laboratory results taken from patent US9688662B2, “N-(2,3-dihydro-1H-pyrrolo[2,3-b]pyridin-5-yl)-4-quinazolinamine and N-(2,3-dihydro-1H-indol-5-yl)-4-quinazolinamine derivatives as perk inhibitors” (Janssen Pharmaceutica NV, priority 2013, dated 2017).
# Tests used:
# [1] = molecular target: T1, PERK (Homo sapiens, UniProt Q9NZJ5); assay: In-vitro PERK enzyme inhibition assay (LanthaScreen, KIN_PERK); format: biochemical; parameters: GST (N); purchased Invitrogen PV5106; settings: recombinant GST-PERK, GFP-eIF2 alpha substrate, 5 μM ATP, 60 minutes
# T1 sequence (Q9NZJ5 30-1116): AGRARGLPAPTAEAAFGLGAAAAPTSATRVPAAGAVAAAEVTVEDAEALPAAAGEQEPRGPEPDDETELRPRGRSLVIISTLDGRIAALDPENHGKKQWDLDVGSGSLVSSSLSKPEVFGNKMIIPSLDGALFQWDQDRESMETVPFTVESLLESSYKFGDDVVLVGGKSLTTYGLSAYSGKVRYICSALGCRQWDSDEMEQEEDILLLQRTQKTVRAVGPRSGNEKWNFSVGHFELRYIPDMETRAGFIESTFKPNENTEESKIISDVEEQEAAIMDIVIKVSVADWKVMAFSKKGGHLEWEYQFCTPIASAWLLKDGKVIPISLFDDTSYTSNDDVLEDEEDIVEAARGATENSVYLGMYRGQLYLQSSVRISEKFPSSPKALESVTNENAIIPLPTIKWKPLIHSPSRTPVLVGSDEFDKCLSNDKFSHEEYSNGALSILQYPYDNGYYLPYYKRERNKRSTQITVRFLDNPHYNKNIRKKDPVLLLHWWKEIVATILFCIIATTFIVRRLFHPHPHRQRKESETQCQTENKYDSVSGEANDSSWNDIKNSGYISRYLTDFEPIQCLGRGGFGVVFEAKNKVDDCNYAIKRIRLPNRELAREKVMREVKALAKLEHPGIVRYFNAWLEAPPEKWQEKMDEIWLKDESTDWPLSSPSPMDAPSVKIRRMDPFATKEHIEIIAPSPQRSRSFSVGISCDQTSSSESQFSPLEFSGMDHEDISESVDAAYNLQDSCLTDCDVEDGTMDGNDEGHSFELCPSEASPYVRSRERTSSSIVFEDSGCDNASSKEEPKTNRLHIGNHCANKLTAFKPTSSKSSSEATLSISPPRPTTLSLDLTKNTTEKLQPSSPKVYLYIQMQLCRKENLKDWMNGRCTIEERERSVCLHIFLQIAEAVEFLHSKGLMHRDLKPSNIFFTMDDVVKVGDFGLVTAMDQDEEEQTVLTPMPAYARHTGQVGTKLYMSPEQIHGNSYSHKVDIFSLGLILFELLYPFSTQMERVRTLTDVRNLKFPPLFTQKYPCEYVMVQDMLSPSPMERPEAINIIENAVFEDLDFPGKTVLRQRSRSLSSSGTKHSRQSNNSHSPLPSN
# Description: Pharmacology i) In-Vitro PERK Enzyme Inhibition Assay (KIN_PERK pIC50)
# The compounds of the invention were tested for inhibitory activity against PERK in an enzyme inhibition assay.
# A biochemical PERK kinase assay using LanthaScreen® technology from Invitrogen using recombinant GST-PERK (Invitrogen PV5106), GFP-eIF2 alpha (full length) as substrate (Invitrogen PV4809) and the Terbium-labeled antibody (Tb-anti-peIF2alpha (pSer52); Invitrogen PV4816) as detection reagent, was performed essentially as described by the manufacturer, using following specific parameters: […]
# [2] = molecular target: T1, PERK; assay: Cell-based PERK inhibition assay (TR-FRET, phosphorylation of GFP-eIF2 alpha in HEK293 cells, tunicamycin); settings: HEK293 (LanthaScreen eIF2α GripTite) cells, compounds 60 min, tunicamycin 2 microg/ml 120 min
# Description: A cell-based TR-FRET assay to measure inhibition of phosphorylation of GFP-eIF2 alpha expressed in HEK293 cells by compounds was set up as follows:
# LanthaScreen® eIF2α GripTite cells (Invitrogen M4387) were plated and incubated for 16-20 h at 37° C. and 5% CO2, incubated with test compounds for 60 min, and then stimulated with tunicamycin (2 microg/ml) for 120 min. Culture medium was aspirated from the wells and, the cells were lysed in LanthaScreen® Cellular Assay Lysis Buffer (Invitrogen; PV5598), supplemented with protease inhibitor cocktail (Sigma P8340, 1/1000 dilution) and phosphatase inhibitor cocktail (Sigma P0044, 1/1000 dilution), including 2 nM terbium-labeled eIF2a pSer52 antibody (Invitrogen; PV4816).
compound,measurement,setting,value
"COc1cc2ncnc(Nc3ccc4c(c3)CCN4C(=O)Cc3c(C)[nH]c4ccccc34)c2cc1OC [Compound 1, 1-[5-[(6,7-dimethoxyquinazolin-4-yl)amino]indolin-1-yl]-2-(2-methyl-1H-indol-3-yl)ethanone]",KIN_PERK pIC50,[1],9.1
same,P-eIF2alpha_Lantha_cell pIC50,[2],7.7
